According to patent publication US6566361B2, “Azapirone pain treatment” (priority 1999, dated 2003):

Assay: Rat plasma concentrations of buspirone and APAP over time
Source text: It also has agonistic action at presynaptic D2 dopaminergic receptors. Acetaminophen is believed to act by elevating the pain threshold in patients.

8-[4-[4-(2-pyrimidinyl)1-piperazinyl]butyl-8-azaspiro(4,5)-decane-7,9-dione [buspirone]
Plasma concentrations over time, alone vs in combination: do not differ significantly whether given alone or in combination
